Experimental data taken from patent US8399206B2, “Methods for diagnosis, prognosis and methods of treatment” (Nodality, Inc., priority 2008, dated 2013).

Columns and labels:
[1] = test system: AML blasts; assay: SCNP / phospho-flow modulated signaling assay, AML study No. 1 (PBMC at diagnosis, CR vs NR); format: cell-based, human; conditions: Study No. 1 sensitivity analysis
From the text: The present illustrative example represents how to analyze cells in one embodiment of the present invention. There are several steps in the process, such as the stimulation step, the staining step and the flow cytometry step. The stimulation step of the phospho-flow procedure can start with vials of frozen cells and end with cells fixed and permeabilized in methanol. Then the cells can be stained with an antibody directed to a particular protein of interest and then analyzed using a flow cytometer.
Frozen cells are thawed in a 37° C. water bath and gently resuspended in the vial and transferred to the 15 mL conical tube. The 15 mL tube is centrifuged at 930 RPM (200×g) for 8 minutes at room temperature. The supernatant is aspirated and the pellet is gently resuspended in 1 mL media A. The cell suspension is filtered through a 70 um cell strainer into a new 15 mL tube. The cell strainer is rinsed with 1 mL media A and another 12 ml of media A into the 15 mL tube. The cells are mixed into an even suspension. A 20 μL aliquot is immediately removed into a 96-well plate containing 180 μL PBS+4% FBS+CD45 Alexa 700+PI to determine cell count and viability post spin. After the determination, the 15 mL tubes are centrifuged at 930 RPM (200×g) for 8 minutes at room temperature. The supernatant is aspirated and the cell pellet is gently resuspended in 4 mL PBS+4 μL Amine Aqua and incubated for 15 min in a 37° C. incubator. 10 mL RPMI+1% FBS is added to the cell suspension and the tube is inverted to mix the cells. The 15 mL tubes are centrifuged at 930 RPM (200×g) for 8 minutes at room temperature. The cells are resuspended in Media A at the desired cell concentration (1.25×10^6/mL). For samples with low numbers of cells (<18.5×10^6), the cells are resuspended in up to 15 mL media. For samples with high numbers of cells (>18.5×10^6), the volume is raised to 10 mL with media A and the desired volume is transferred to a new 15 mL tube, and the cell concentration is adjusted to 1.25×10^6 cells/ml. 1.6 mL of the above cell suspension (concentration at 1.25×10^6 cells/ml) is transferred into wells of a multi-well plate. From this plate, 80 ul is dispensed into each well of a subsequent plate. The plates are covered with a lid (Nunc) and placed in a 37° C. incubator for 2 hours to rest.
A concentration for each stimulant that is five folds more (5×) than the final concentration is prepared using Media A as diluent. 5× stimuli are arrayed into wells of a standard 96 well v-bottom plate that correspond to the wells on the plate with cells to be stimulated.
Adding the stimulant: The cell plate(s) are taken out of the incubator and placed in a 37° C. water bath next to the pipette apparatus. The cell plate is taken from the water bath and gently swirled to resuspend any settled cells. With pipettor, the stimulant is dispensed into the cell plate and vortexed at “7” for 5 seconds. The deep well plate is put back into the water bath.
Adding Fixative: 200 μl of the fixative solution (final concentration at 1.6%) is dispensed into wells and then mixed on the titer plate shaker on high for 5 seconds. The plate is covered with foil sealer and incubated in a 37° C. water bath for 10 minutes. The plate is spun for 6 minutes at 2000 rpm at room temperature. The cells are aspirated using a 96 well plate aspirator (VP Scientific). The plate is vortexed to resuspend cell pellets in the residual volume. The pellet is ensured to be dispersed before the Methanol step (see cell permeabilization) or clumping will occur.
Cell Permeabilization: Permeability agent, for example methanol, is added slowly and while the plate is vortexing. To do this, the cell plate is placed on titer plate shaker and made sure it is secure. The plate is set to shake using the highest setting. A pipetter is used to add 0.6 mls of 100% methanol to the plate wells. The plate(s) are put on ice until this step has been completed for all plates. […]

[2] = test system: AML BMMC leukemic blasts; assay: SCNP modulated signaling assay, AML study No. 2 (BMMC, CR vs NR, clinical sub-groups); format: cell-based, human; conditions: Study No. 2, all patients
Procedure: Two independent sets of cryopreserved samples were analyzed sequentially. The first set consisted of 35 peripheral blood mononuclear cell (PBMC) samples derived from AML patients. The second set consisted of 134 cryopreserved bone marrow mononuclear cell (BMMC) samples derived from AML patients. These samples were the same samples used in the previous examples. Sample inclusion criteria required collection prior to initiation of induction chemotherapy, AML classification by the French-American-British (FAB) criteria as M0 through M7 (excluding M3) and availability of clinical annotations.
In the first study, induction chemotherapy consisted of at least one cycle of standard cytarabine-based induction therapy (i.e. daunorubicin 60 mg/m^2×3 days, cytarabine 100-200 mg/m^2 continuous infusion×7 days); responses were measured after one cycle of induction therapy. In the second study, cytarabine (200 mg/m^2 to 3 g/m^2) was used in combination with an anthracycline (daunorubicin or idarubicin) or an additional anti-metabolite (e.g. fludarabine or troxacitabine), and sometimes, an experimental agent (Table 16). Responses in this set were measured after completion of induction therapy (>90% after one cycle). […]
The median fluorescence intensity (MFI) was computed for each node from the fluorescence intensity levels for the cells in the myeloid population. […]

[3] = NR samples incl. CRp, negative = down regulation

For `CCCCCCCCCCCCCC(=O)O[C@@H]1[C@@H](C)[C@@]2(O)[C@@H](C=C(CO)C[C@]3(O)C(=O)C(C)=C[C@@H]23)[C@@H]2C(C)(C)[C@]12OC(C)=O` [PMA, reference compound], which “Mean Value of CRs, p-Erk Fold” value ([1]; CR samples) is on record?
Its value is 1.46.

B1: Il-3 (protein, UniProt P08700 20-152, looked up)
Interleukin-3: APMTQTTPLKTSWVNCSNMIDEIITHLKQPPLPLLDFNNLNGEDQDILMENNLRRPNLEAFNRAVKSLQNASAIESILKNLLPCLPLATAAPTRHPIHIKDGDWNEFRRKLTFYLKTLENAQAQQTTLSLAIF
B1 was tested. Which “Mean Value of CRs, p-Stat1 Fold” value ([1]; CR samples) did it give?
The value was 0.05.

And the “Mean Value of NRs, p-Stat1 Fold” value [1, 3]?
The value was −0.01.

B2: IL-3 (protein, UniProt P08700 20-152, looked up)
Interleukin-3: APMTQTTPLKTSWVNCSNMIDEIITHLKQPPLPLLDFNNLNGEDQDILMENNLRRPNLEAFNRAVKSLQNASAIESILKNLLPCLPLATAAPTRHPIHIKDGDWNEFRRKLTFYLKTLENAQAQQTTLSLAIF
B2 was tested. Which “Mean Value of CRs, p-Stat5 Fold” value ([2]; CR samples) did it give?
Its value is 1.99.

What about the “Mean Value of NRs, p-Stat5 Fold” value ([2]; NR samples) of the same molecule?
The value was 0.44.

What about the “Mean Value of CRs, p-CREB Total Phospho” value ([1]; CR samples) of the same molecule?
Its value is 1.51.

And the “Mean Value of CRs, p-Stat3 Fold” value ([1]; CR samples)?
Its value is 0.15.

And the “Mean Value of NRs, p-CREB Total Phospho” value ([1]; NR samples incl. CRp)?
Its value is 2.58.

What about the “Mean Value of NRs, p-Stat3 Fold” value [1, 3] of the same molecule?
The value was −0.04.
